These results are taken from ChEMBL document CHEMBL1133521, “Multiple-conformation and protonation-state representation in 4D-QSAR: the neurokinin-1 receptor system” (J Med Chem, 2000).

Protein sequences, listed by entry. Tags and fused reporters are not part of them.
UniProt P25103, whole entry: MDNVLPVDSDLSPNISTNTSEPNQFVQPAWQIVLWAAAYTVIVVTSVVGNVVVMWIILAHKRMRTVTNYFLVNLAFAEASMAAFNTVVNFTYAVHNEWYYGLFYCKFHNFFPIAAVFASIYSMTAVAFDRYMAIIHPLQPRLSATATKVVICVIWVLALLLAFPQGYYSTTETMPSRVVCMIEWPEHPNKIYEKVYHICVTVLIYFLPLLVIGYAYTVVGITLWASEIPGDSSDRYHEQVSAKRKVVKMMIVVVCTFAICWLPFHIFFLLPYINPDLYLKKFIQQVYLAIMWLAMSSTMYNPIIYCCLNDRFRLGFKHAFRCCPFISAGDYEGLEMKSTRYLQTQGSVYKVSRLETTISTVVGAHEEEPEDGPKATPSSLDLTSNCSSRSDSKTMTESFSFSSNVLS

The IC50 is the concentration needed to halve the response being measured. A high value points to weaker potency in that assay.

In this assay the target is Substance-P receptor (Homo sapiens, UniProt P25103). In words: Inhibitory activity against Tachykinin receptor 1.

`COc1ccccc1C(C1CCCCN1C(=O)c1cc(C(F)(F)F)cc(C(F)(F)F)c1)N1CCC(N2CCCCC2)CC1` (stereo unspecified) registered an IC50 of 12 nM.
